Biological target: human recombinant D-amino acid oxidase (Homo sapiens (Human), UniProt P14920)
Assay: In vitro D-amino acid oxidase (DAAO) assay, 96-well plate
Format: biochemical
Details: D-serine 5 mM, FAD 1 μM, 20 min, room temperature, Tris buffer pH 8.5, read-out: Inhibition of DAAO IC50
Experimental: A reliable 96-well plate D-amino acid oxidase (DAAO) assay was developed based on previously published reports (J. Biol. Chem. 277: 27782 (2002)). […] All reactions were carried out for 20 min at room temperature in a 100-μL volume in Tris buffer (50 mM, pH 8.5). Additionally, stock solutions and serial dilutions of potential DAO inhibitors were made in 10:90 DMSO:buffer with a final assay DMSO concentration of 1%.

Amino acid sequences for entries named in this document (tags omitted). A change or cut given only in a name is not applied to a line headed by its entry.
UniProt P14920: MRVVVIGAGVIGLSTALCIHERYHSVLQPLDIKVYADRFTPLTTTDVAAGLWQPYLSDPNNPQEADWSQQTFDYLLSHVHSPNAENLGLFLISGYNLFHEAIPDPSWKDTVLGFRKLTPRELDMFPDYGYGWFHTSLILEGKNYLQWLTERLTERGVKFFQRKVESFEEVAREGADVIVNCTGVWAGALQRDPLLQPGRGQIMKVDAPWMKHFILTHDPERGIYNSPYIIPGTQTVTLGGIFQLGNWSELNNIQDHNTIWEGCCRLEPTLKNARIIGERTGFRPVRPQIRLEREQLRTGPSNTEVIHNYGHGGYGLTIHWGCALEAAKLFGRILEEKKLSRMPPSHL

## 6-Hydroxy-2-(perfluorophenyl)ethyl-1,2,4-triazine-3,5(2H,4H)-dione [Compound 10m]
  IC50: 200 nM
